The results in this text go back to patent EP4831172A1, “A CLASS OF POLYCYCLIC COMPOUNDS AND USES THEREOF” (dated 2026).

By UniProt entry, the sequences of proteins in these tests, tags left out. Residues count along the entry.
UniProt P41595, whole entry: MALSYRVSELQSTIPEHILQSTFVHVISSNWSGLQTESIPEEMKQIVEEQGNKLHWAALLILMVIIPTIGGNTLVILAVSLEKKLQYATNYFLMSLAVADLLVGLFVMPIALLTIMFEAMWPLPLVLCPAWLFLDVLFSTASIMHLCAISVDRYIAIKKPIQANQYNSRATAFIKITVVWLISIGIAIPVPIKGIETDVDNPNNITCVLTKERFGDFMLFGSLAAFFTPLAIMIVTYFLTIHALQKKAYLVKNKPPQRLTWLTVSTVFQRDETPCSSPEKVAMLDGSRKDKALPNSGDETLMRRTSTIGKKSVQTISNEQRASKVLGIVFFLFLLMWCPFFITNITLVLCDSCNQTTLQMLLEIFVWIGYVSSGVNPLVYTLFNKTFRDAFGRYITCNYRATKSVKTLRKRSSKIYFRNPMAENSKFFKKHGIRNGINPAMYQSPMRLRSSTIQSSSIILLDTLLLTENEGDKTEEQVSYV
UniProt P41143, whole entry: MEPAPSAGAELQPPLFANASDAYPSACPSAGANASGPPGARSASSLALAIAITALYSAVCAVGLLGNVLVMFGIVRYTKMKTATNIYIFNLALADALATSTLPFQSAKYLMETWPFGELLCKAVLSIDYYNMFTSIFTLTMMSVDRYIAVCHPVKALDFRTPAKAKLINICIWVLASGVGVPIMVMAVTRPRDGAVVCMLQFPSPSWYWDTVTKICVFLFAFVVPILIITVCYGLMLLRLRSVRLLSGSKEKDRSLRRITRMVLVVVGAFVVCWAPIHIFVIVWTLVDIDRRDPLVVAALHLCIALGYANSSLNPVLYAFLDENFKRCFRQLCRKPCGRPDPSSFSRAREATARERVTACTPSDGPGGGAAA
UniProt Q13936, whole entry: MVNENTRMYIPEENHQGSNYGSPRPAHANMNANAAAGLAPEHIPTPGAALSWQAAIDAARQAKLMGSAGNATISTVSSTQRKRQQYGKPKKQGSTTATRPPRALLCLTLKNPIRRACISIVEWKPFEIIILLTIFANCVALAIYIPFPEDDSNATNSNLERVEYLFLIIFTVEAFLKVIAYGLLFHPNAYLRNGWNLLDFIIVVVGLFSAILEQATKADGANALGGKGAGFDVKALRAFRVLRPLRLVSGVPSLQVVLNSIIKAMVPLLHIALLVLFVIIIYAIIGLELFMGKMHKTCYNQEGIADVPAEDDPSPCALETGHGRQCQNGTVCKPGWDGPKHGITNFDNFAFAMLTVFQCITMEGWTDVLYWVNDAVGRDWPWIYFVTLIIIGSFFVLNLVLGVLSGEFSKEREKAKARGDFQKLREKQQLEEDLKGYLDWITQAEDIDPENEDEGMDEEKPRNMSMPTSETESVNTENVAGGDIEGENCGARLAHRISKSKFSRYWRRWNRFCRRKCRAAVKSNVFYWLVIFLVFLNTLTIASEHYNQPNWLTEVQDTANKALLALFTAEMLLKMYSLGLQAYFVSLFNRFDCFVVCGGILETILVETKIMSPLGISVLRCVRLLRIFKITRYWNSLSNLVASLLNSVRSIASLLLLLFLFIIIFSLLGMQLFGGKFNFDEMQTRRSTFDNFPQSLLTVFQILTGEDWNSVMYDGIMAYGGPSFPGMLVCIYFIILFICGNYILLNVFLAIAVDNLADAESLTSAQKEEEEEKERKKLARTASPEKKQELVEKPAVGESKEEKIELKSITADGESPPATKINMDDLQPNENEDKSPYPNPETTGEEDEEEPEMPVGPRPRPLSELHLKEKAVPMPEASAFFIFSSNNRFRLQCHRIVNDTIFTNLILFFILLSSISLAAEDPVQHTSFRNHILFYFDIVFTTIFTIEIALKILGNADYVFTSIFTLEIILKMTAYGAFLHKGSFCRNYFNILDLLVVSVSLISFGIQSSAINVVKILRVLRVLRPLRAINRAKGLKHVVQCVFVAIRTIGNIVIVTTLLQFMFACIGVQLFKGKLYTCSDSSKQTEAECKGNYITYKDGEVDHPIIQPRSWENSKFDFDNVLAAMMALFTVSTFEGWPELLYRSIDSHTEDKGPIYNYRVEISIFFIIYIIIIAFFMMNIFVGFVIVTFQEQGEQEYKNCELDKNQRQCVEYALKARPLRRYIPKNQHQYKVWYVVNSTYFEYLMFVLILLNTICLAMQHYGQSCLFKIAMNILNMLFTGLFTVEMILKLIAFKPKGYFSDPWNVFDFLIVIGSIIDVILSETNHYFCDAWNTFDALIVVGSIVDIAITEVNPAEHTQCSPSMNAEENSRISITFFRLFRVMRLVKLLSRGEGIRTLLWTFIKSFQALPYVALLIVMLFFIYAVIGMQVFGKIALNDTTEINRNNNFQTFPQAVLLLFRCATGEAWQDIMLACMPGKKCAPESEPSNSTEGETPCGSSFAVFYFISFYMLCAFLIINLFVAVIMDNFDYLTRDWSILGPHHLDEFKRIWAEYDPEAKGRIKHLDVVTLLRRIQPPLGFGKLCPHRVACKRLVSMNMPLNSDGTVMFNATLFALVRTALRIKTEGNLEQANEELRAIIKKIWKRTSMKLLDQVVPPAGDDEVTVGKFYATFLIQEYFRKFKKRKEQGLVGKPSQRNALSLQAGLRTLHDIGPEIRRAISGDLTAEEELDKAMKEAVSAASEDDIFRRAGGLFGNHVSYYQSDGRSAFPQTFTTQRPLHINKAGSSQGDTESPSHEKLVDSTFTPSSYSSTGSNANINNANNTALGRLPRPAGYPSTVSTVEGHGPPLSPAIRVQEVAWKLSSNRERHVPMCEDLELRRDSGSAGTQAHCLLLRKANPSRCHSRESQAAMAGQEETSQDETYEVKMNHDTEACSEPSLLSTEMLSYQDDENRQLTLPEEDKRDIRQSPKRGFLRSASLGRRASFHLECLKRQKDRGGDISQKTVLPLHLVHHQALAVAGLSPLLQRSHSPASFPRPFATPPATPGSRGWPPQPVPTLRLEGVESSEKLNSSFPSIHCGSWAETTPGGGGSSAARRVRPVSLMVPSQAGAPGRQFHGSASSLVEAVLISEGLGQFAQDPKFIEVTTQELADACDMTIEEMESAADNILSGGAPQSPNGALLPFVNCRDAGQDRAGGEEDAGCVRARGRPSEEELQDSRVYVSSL
UniProt P43220, 24-463 limits assumed: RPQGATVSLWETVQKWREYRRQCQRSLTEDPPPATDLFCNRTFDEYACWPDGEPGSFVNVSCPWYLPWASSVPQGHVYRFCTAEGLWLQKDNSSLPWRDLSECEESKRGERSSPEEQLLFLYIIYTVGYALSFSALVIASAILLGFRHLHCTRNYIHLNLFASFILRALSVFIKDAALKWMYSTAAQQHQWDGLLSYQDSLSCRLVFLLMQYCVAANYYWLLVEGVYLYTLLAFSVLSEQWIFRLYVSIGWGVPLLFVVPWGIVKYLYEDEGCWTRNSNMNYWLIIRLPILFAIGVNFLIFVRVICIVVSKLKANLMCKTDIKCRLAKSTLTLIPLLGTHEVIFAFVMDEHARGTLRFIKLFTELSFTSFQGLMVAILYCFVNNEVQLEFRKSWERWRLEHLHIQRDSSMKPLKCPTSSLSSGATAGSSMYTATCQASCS

One data set concerns the target 5HT2B (Homo sapiens, UniProt P41595). The data set is described as follows: Off-target safety panel, single target. The following applies: test concentration of 10 µM.
For another data set, the target named is op-delta (Homo sapiens, UniProt P41143). The data set is described as follows: Off-target safety panel, single target. The following applies: test concentration of 10 µM.
The target in a further data set is Ca^2+-L (Homo sapiens, UniProt Q13936). The data set is described as follows: Off-target safety panel, single target. The following applies: test concentration of 10 µM.
A short description of data set [1]: Weight-loss drug efficacy in DIO C57BL/6 hGLP1R mice. The following applies: 0.3 mg/kg i.g. qd.
Data set [2] is described as follows: In vivo pharmacokinetic study in mice. The following applies: ICR mice.
For a further data set, the system named is 44 targets. The data set is described as follows: Safety assessment of off-target effects on 44 targets (radioligand binding, calcium flux, enzyme assays). Conditions: any of the 44 targets. In general terms: Calcium assays in cells follow changes in intracellular calcium, usually with a dye or a luminescent sensor.
Another data set concerns the target GLP-1R (Homo sapiens, UniProt P43220). The data set is described as follows: GLP1R-cAmp-Luc cell luciferase reporter assay of agonistic activity (titled in vitro enzymatic assay). Conditions: read-out: Agonistic activity (EC50: nM); GLP1R-cAmp-Luc cells, 4 h incubation.
Data set [3] can be described thus: Intraperitoneal glucose tolerance test (IPGTT) in hGLP-1R transgenic mice.
Data set [4] can be described thus: In vivo pharmacokinetic study in rats. The following applies: SD rats, oral (intragastric) 10 mg/kg.
The mark [5] stands for this setting: iv (2 mg/kg), detection results at 24 h.
Where [6] appears, read: iv (2 mg/kg), detection results at 72 h.
Where [7] appears, read: po (10 mg/kg), detection results at 24 h.
Where [8] appears, read: po (10 mg/kg), detection results at 72 h.

In the case of `Cc1cc(-n2nc3c(c2-n2ccn(-c4ccc5c(cnn5C)c4F)c2=O)[C@H](C)N(C(=O)c2cc4cc([C@H]5CCOC(C)(C)C5)ccc4n2[C@@]2(c4noc(=O)[nH]4)C[C@@H]2C)CC3)cc(C)c1F`, the inhibition rate on 5HT2B, on op-delta and at Ca^2+-L was greater than 50% each time. For the same compound, the “average body weight gain rate” value in [1] (after 18 days of continuous administration) is listed as -15.1%.

Usually Cmax stands for the peak of the concentration-time curve. Broadly, the Tmax is the time at which the peak concentration occurs. The term EC50 denotes the concentration needed to bring the measured effect to its halfway point. `Cc1cc(-n2nc3c(c2-n2ccn(-c4ccc5c(cnn5C5CC5)c4F)c2=O)[C@H](C)N(C(=O)c2cc4cc([C@H]5CCOC(C)(C)C5)ccc4n2[C@@]2(c4noc(=O)[nH]4)C[C@@H]2C)CC3)cc(C)c1F`: in data set [2] (setting [5]), the AUCinf worked out at 19736 ng·h/mL, the Cl amounted to 1.7 mL/min/kg and the T1/2 is given as 7.14 h. In data set [2] (setting [6]), the AUCinf came to 21599 ng·h/mL, the Cl worked out at 1.54 mL/min/kg and the T1/2 was 10 h. For the same compound, in data set [2] (setting [7]), the AUCinf worked out at 95629 ng·h/mL, the Cmax was found to be 8197 ng/mL, the F amounted to 96.9% and the T1/2 is on record as 7.77 h. Moreover, in [2] (setting [7]), the Tmax was 1.67 h. Besides, in data set [2] (setting [8]), the AUCinf was 103132 ng·h/mL, the Cmax is on record as 8197 ng/mL, the F came out at 95.5% and the T1/2 is reported as 9.56 h. Moreover, the Tmax in [2] (setting [8]) came out at 1.67 h. Further, the “agonistic effect (agonism rate)” value in the data set on 44 targets (single concentration of 10 µM (Eta agonistic effect 12 µM)) is less than 50%. Also, the “binding or inhibition effect (inhibition rate)” value with 44 targets (single concentration of 10 µM) was less than 50%. Moreover, the EC50 at GLP-1R is less than 10 nM. Further, the “average body weight gain rate” value in data set [1] (after 20 days of continuous administration) is recorded as -20.3%. Moreover, the “Mean blood glucose AUC” value in data set [3] (0-120 min after i.p. glucose 2 g/kg, single i.g. dose 0.05 mg/kg given 60 min before, Mean ± SD) amounted to 949.6 ± 87.6 mmol·min/L. Also, in data set [3] (0.05 mg/kg i.g., at 15 min, 30 min, 60 min and 120 min after glucose loading, versus Vehicle group), the “blood glucose levels after glucose loading” value is reported as “significantly lower than those in the Vehicle group”.

In the case of `Cc1cc(-n2nc3c(c2-n2ccn(-c4cc5c6c(cnn6CCO5)c4)c2=O)[C@H](C)N(C(=O)c2cc4cc([C@H]5CCOC(C)(C)C5)ccc4n2[C@@]2(c4noc(=O)[nH]4)C[C@@H]2C)CC3)cc(C)c1F`, in [2] (setting [5]), the AUCinf was 7706 ng·h/mL. Besides, in [2] (setting [7]), the AUCinf was found to be 41197 ng·h/mL, the Cmax is recorded as 5377 ng/mL and the Tmax is listed as 1.33 h. For the same compound, at GLP-1R, the EC50 was less than 10 nM. In data set [4], the AUCinf was 24500 ng·h/mL, the Cmax turned out to be 2947 ng/mL, the T1/2 was determined as 3.86 h and the Tmax was 2.0 h.

For `Cc1cc(-n2nc3c(c2N(C)C(=O)Nc2ccc4c(cnn4C)c2)[C@H](C)N(C(=O)c2cc4cc([C@H]5CCOC(C)(C)C5)ccc4n2[C@@]2(c4noc(=O)[nH]4)C[C@@H]2C)CC3)cc(C)c1F`, the EC50 at GLP-1R is less than 10 nM.

For the compound `Cc1cc(-n2nc3c(c2-n2ccn(-c4ccc5nn(CC6CC6)cc5c4F)c2=O)[C@H](C)N(C(=O)c2cc4cc([C@H]5CCOC(C)(C)C5)ccc4n2[C@@]2(c4noc(=O)[nH]4)C[C@@H]2C)CC3)cc(C)c1F`, in data set [2] (setting [5]), the AUCinf turned out to be 17341 ng·h/mL. In addition, in data set [2] (setting [7]), the AUCinf was determined as 85040 ng·h/mL, the Cmax is recorded as 7807 ng/mL, the F turned out to be 98.1% and the Tmax stood at 1.67 h. Besides, the EC50 at GLP-1R is less than 10 nM. In [4], the AUCinf came to 31480 ng·h/mL, the Cmax stood at 3190 ng/mL, the T1/2 is given as 7.47 h and the Tmax was 3.33 h.

`Cc1cc(-n2nc3c(c2NC(=O)Nc2ccc4c(cnn4C)c2)[C@H](C)N(C(=O)c2cc4cc([C@H]5CCOC(C)(C)C5)ccc4n2[C@@]2(c4noc(=O)[nH]4)C[C@@H]2C)CC3)cc(C)c1F`: the EC50 at GLP-1R is less than 10 nM.

As to `Cc1cc(-n2nc3c(c2-n2ccn(-c4ccc5nn6c(c5c4)OCCC6)c2=O)[C@H](C)N(C(=O)c2cc4cc([C@H]5CCOC(C)(C)C5)ccc4n2[C@@]2(c4noc(=O)[nH]4)C[C@@H]2C)CC3)cc(C)c1F`, the EC50 at GLP-1R is less than 10 nM.

For `Cc1cc(-n2nc3c(c2-n2ccn(-c4ccc5c(cnn5CC5CC5)c4F)c2=O)[C@H](C)N(C(=O)c2cc4cc([C@H]5CCOC(C)(C)C5)ccc4n2[C@@]2(c4noc(=O)[nH]4)C[C@@H]2C)CC3)cc(C)c1F`, on GLP-1R, the EC50 was less than 10 nM.

For the compound `Cc1cc(-n2nc3c(c2-n2ccn(-c4ccc5c6n(nc5c4)CCCO6)c2=O)[C@H](C)N(C(=O)c2cc4cc([C@H]5CCOC(C)(C)C5)ccc4n2[C@@]2(c4noc(=O)[nH]4)C[C@@H]2C)CC3)cc(C)c1F`, the EC50 on GLP-1R was less than 10 nM.

Take `Cc1cc(-n2nc3c(c2NC(=O)Nc2ccc4c(cnn4C)c2F)[C@H](C)N(C(=O)c2cc4cc([C@H]5CCOC(C)(C)C5)ccc4n2[C@@]2(c4noc(=O)[nH]4)C[C@@H]2C)CC3)cc(C)c1F`: the EC50 at GLP-1R was less than 10 nM.

Consider `Cc1cc(-n2nc3c(c2-n2ccn(-c4cc(C)c5c(cnn5C5CC5)c4)c2=O)[C@H](C)N(C(=O)c2cc4cc([C@H]5CCOC(C)(C)C5)ccc4n2[C@@]2(c4noc(=O)[nH]4)C[C@@H]2C)CC3)cc(C)c1F`, for which, on GLP-1R, the EC50 is less than 10 nM.

As for `Cc1cc(-n2nc3c(c2NC(=O)N(C)c2ccc4c(cnn4C)c2)[C@H](C)N(C(=O)c2cc4cc([C@H]5CCOC(C)(C)C5)ccc4n2[C@@]2(c4noc(=O)[nH]4)C[C@@H]2C)CC3)cc(C)c1F`, the EC50 on GLP-1R was less than 10 nM.

For `Cc1cc(-n2nc3c(c2-n2ccn(-c4ccc5c(cnn5C5CC5)c4C)c2=O)[C@H](C)N(C(=O)c2cc4cc([C@H]5CCOC(C)(C)C5)ccc4n2[C@@]2(c4noc(=O)[nH]4)C[C@@H]2C)CC3)cc(C)c1F`, the EC50 at GLP-1R was less than 10 nM.
